Measured values: patent publication US20130079526A1, “Synthesis of Chirally Purified Substituted Benzothiazole Diamines” (priority 2010, published 2013)

Assays:
[1] = test system: humans; details: Boehringer Ingelheim product insert; cited from earlier work
[2] = Solution hold stability by HPLC; details: solution in IPA/DI water with 37% HCl, stirred for 24 hours

Structure (SMILES)	maximally tolerated dose for humans [1] [mg/day]	degradation by HPLC [2]
CCCN[C@H]1CCc2nc(N)sc2C1 [pramipexole, (6S)-4,5,6,7-tetrahydro-N6-propyl-2,6-benzothiazole-diamine]	4.5	
CCCN[C@@H]1CCc2nc(N)sc2C1.Cc1ccc(S(=O)(=O)O)cc1 [Pramipexole.p-TSA, (6R)-4,5,6,7-tetrahydro-N6-propyl-2,6-benzothiazole-diamine p-TSA Salt]		no degradation was observed
